Data published in paper PMC6838683, “Discovery of Human Signaling Systems: Pairing Peptides to G Protein-Coupled Receptors” (Cell, 2019).

By UniProt entry, the sequences of proteins in these tests, tags left out.
UniProt P41143, whole entry: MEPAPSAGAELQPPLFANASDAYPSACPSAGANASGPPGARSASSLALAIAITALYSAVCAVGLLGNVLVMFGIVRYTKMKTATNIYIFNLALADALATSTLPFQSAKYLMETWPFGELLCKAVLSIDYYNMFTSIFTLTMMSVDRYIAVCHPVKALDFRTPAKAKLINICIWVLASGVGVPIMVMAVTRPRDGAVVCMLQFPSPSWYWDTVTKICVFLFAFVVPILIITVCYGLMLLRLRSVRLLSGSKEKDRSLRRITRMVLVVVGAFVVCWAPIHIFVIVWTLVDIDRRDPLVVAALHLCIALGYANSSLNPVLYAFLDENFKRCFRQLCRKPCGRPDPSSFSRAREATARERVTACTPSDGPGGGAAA

Molecular target: T1, OPRD1 (Homo sapiens, UniProt P41143)
T1 construct: host or cells: HTLA cells (HEK293-derived)
Experiment: β-arrestin recruitment (Tango), known peptide receptors
Assay type: cell-based
Conditions: endogenous ligand(s) included in peptide library
Source text: Supplement mmc6.xlsx, sheet "Peptide GPCR controls" | column: Confirmed?

Substance | Confirmed? (confirmation of b-arrestin recruitment)
Leu-enkephalin | No
Dynorphin A | No
